# US10730889B2, “Amido spirocyclic amide and sulfonamide derivatives” (Forma TM, LLC, priority 2012, dated 2020)
# By UniProt entry, the sequences of proteins in these tests, tags left out. Where a name states a change or a piece, a line headed by the entry shows the natural chain unless it says otherwise.
# UniProt P43490: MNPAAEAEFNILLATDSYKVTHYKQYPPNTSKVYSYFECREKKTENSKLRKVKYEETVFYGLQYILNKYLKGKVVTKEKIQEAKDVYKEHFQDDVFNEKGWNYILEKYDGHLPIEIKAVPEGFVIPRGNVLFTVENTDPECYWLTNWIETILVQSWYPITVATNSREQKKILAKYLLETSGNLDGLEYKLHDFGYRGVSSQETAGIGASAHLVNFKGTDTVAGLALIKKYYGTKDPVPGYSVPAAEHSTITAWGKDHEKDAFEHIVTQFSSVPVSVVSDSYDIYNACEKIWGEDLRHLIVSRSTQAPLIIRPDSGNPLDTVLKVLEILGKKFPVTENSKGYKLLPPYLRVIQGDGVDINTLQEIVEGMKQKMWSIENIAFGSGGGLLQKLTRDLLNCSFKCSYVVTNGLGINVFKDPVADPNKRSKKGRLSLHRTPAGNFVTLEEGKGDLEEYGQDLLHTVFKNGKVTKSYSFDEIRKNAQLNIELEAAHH
# Molecular target: NAMPT (Homo sapiens (Human), UniProt P43490)
# Assay: Biochemical inhibition assay (NAMPT enzymatic reaction, NMN quantified by mass spectrometry)
row,IC50,SMILES
1,0.0509 µM,"CC(=O)Nc1cccc(C(=O)N2CCC3(CC2)CC3CNC(=O)c2cc3ccncc3o2)n1 (stereo not drawn) [Example 135, N-[[6-(6-acetamidopyridine-2-carbonyl)-6-azaspiro[2.5]octan-2-yl]methyl]furo[2,3-c]pyridine-2-carboxamide]"
2,0.104 µM,"CCc1noc(C)c1C(=O)N1CCC2(CC1)CC2CNC(=O)c1cc2ccncc2o1 (stereo not drawn) [Example 136, N-[[6-(3-ethyl-5-methyl-isoxazole-4-carbonyl)-6-azaspiro[2.5]octan-2-yl)methyl]furo[2,3-c]pyridine-2-carboxamide]"
3,0.252 µM,"CCn1nc(C)cc1C(=O)N1CCC2(CC1)CC2CNC(=O)c1cc2ccncc2o1 (stereo not drawn) [Example 137, N-[[6-(2-ethyl-5-methyl-pyrazole-3-carbonyl)-6-azaspiro[2.5]octan-2-yl]methyl]furo[2,3-c]pyridine-2-carboxamide]"
4,0.0941 µM,"CCn1cc(C(=O)N2CCC3(CC2)CC3CNC(=O)c2cc3ccncc3o2)c(C)n1 (stereo not drawn) [Example 138, N-[[6-(1-ethyl-3-methyl-pyrazole-4-carbonyl)-6-azaspiro[2.5]octan-2-yl)methyl]furo[2,3-c]pyridine-2-carboxamide]"
5,0.163 µM,"Cc1nocc1C(=O)N1CCC2(CC1)CC2CNC(=O)c1cc2ccncc2o1 (stereo not drawn) [Example 139, N-[[6-(3-methylisoxazole-4-carbonyl)-6-azaspiro[2.5]octan-2-yl]methyl]furo[2,3-c]pyridine-2-carboxamide]"
6,0.78 µM,"Cc1ccn(CC(C)C(=O)N2CCC3(CC2)CC3CNC(=O)c2cc3ccncc3o2)n1 (stereo not drawn) [Example 140, N-[[6-[2-methyl-3-(3-methylpyrazol-1-yl)propanoyl]-6-azaspiro[2.5]octan-2-yl]methyl]furo[2,3-c]pyridine-2-carboxamide]"
7,0.222 µM,"O=C(NCC1CC12CCN(C(=O)c1cn[nH]c1)CC2)c1cc2ccncc2o1 (stereo not drawn) [Example 141, N-[[6-(1H-pyrazole-4-carbonyl)-6-azaspiro[2.5]octan-2-yl]methyl]furo[2,3-c]pyridine-2-carboxamide]"
8,0.116 µM,"CS(=O)(=O)N1CCC(CC(=O)N2CCC3(CC2)CC3CNC(=O)c2cc3ccncc3o2)CC1 (stereo not drawn) [Example 142, N-[[6-[2-(1-methylsulfonyl-4-piperidyl)acetyl]-6-azaspiro[2.5]octan-2-yl]methyl]furo[2,3-c]pyridine-2-carboxamide]"
9,1.22 µM,"CN1CCOC(C(=O)N2CCC3(CC2)CC3CNC(=O)c2cc3ccncc3o2)C1 (stereo not drawn) [Example 143, N-[[6-(4-methylmorpholine-2-carbonyl)-6-azaspiro[2.5]octan-2-yl]methyl]furo[2,3-c]pyridine-2-carboxamide]"
10,0.116 µM,"CC(C)C(=O)N1CC(C(=O)N2CCC3(CC2)CC3CNC(=O)c2cc3ccncc3o2)C1 (stereo not drawn) [Example 144, N-[[6-[1-(2-methylpropanoyl)azetidine-3-carbonyl]-6-azaspiro[2.5]octan-2-yl]methyl]furo[2,3-c]pyridine-2-carboxamide]"
11,0.494 µM,"CC(=O)N1CC(C(=O)N2CCC3(CC2)CC3CNC(=O)c2cc3ccncc3o2)C1 (stereo not drawn) [Example 145, N-[[6-(1-acetylazetidine-3-carbonyl)-6-azaspiro[2.5]octan-2-yl]methyl]furo[2,3-c]pyridine-2-carboxamide]"
12,0.0801 µM,"O=C(NCC1CC12CCN(C(=O)C1CCN(c3cccnn3)C1)CC2)c1cc2ccncc2o1 (stereo not drawn) [Example 146, N-[[6-(1-pyridazin-3-ylpyrrolidine-3-carbonyl)-6-azaspiro[2.5]octan-2-yl)methyl]furo[2,3-c]pyridine-2-carboxamide]"
13,0.0553 µM,"O=C(NCC1CC12CCN(C(=O)CC1CCN(c3ncccn3)CC1)CC2)c1cc2ccncc2o1 (stereo not drawn) [Example 147, N-[[6-[2-(1-pyrimidin-2-yl-4-piperidyl)acetyl]-6-azaspiro[2.5]octan-2-yl]methyl]furo[2,3-c]pyridine-2-carboxamide]"
14,0.288 µM,"CC(C)N1CCC(CC(=O)N2CCC3(CC2)CC3CNC(=O)c2cc3ccncc3o2)CC1 (stereo not drawn) [Example 148, N-[[6-[2-(1-isopropyl-4-piperidyl)acetyl]-6-azaspiro[2.5]octan-2-yl]methyl]furo[2,3-c]pyridine-2-carboxamide]"
15,0.31 µM,"CC1(CC(=O)N2CCC3(CC2)CC3CNC(=O)c2cc3cnccc3[nH]2)COC1 (stereo not drawn) [Example 150, N-([6-[2-(3-methyloxetan-3-yl)acetyl]-6-azaspiro[2.5]octan-1-yl]methyl)-1H-pyrrolo[3,2-c]pyridine-2-carboxamide]"
16,0.0601 µM,"N#Cc1ccccc1CC(=O)N1CCC2(CC1)CC2CNC(=O)c1cc2ccncc2o1 (stereo not drawn) [Example 152, N-[[6-[2-(2-cyanophenyl)acetyl]-6-azaspiro[2.5]octan-2-yl]methyl]furo[2,3-c]pyridine-2-carboxamide]"
17,0.686 µM,"COCCC(=O)N1CCC2(CC1)CC2CNC(=O)c1cc2ccncc2o1 (stereo not drawn) [Example 153, N-[[6-(3-methoxypropanoyl)-6-azaspiro[2.5]octan-2-yl]methyl]furo[2,3-c]pyridine-2-carboxamide]"
18,0.208 µM,"O=C(NCC1CC12CCN(C(=O)Cc1ccc(S(=O)(=O)C(F)(F)F)cc1)CC2)c1cc2ccncc2o1 (stereo not drawn) [Example 154, N-[[6-[2-[4-(trifluoromethylsulfonyl)phenyl]acetyl]-6-azaspiro[2.5]octan-2-yl]methyl]furo[2,3-c]pyridine-2-carboxamide]"

row,IC50,SMILES
1,0.261 µM,"CC(=O)N(C)CCC(=O)N1CCC2(CC1)CC2CNC(=O)c1cc2ccncc2o1 (stereo not drawn) [Example 155, N-[[6-[3-[acetyl(methyl]amino]propanoyl]-6-azaspiro[2.5]octan-2-yl]methyl]furo[2,3-c]pyridine-2-carboxamide]"
2,0.0752 µM,"N#Cc1ccc(NC(=O)N2CCC3(CC2)CC3CNC(=O)c2cc3ccncc3o2)cc1 (stereo not drawn) [Example 157, N-[[6-[(4-cyanophenyl)carbamoyl]-6-azaspiro[2.5]octan-2-yl)methyl]furo[2,3-c]pyridine-2-carboxamide]"
3,0.41 µM,"Cc1cccc(CNC(=O)N2CCC3(CC2)CC3CNC(=O)c2cc3ccncc3o2)c1 (stereo not drawn) [Example 158, N-[[6-(m-tolylmethylcarbamoyl)-6-azaspiro[2.5]octan-2-yl]methyl]furo[2,3-c]pyridine-2-carboxamide]"
4,0.0332 µM,"Cc1ccc(NC(=O)N2CCC3(CC2)CC3CNC(=O)c2cc3ccncc3o2)cc1 (stereo not drawn) [Example 159, N-[[6-(p-tolylcarbamoyl)-6-azaspiro[2.5]octan-2-yl]methyl]furo[2,3-c]pyridine-2-carboxamide]"
5,0.951 µM,O=C(NCC1CC12CCN(C(=O)NCc1ccccc1)CC2)c1cc2ccncc2o1 (stereo not drawn) [Example 160]
6,0.123 µM,"O=C(NCC1CC12CCN(C(=O)NCc1ccccc1F)CC2)c1cc2ccncc2o1 (stereo not drawn) [Example 161, N-[[6-[(2-fluorophenyl)methylcarbamoyl]-6-azaspiro[2.5]octan-2-yl]methyl]furo[2,3-c]pyridine-2-carboxamide]"
7,0.441 µM,"Cc1ccc(CNC(=O)N2CCC3(CC2)CC3CNC(=O)c2cc3ccncc3o2)cc1 (stereo not drawn) [Example 162, N-[[6-(p-tolylmethylcarbamoyl)-6-azaspiro[2.5]octan-2-yl]methyl]furo[2,3-c]pyridine-2-carboxamide]"
8,0.559 µM,"O=C(NCC1CC12CCN(C(=O)NCc1ccc(F)cc1)CC2)c1cc2ccncc2o1 (stereo not drawn) [Example 163, N-[[6-[(4-fluorophenyl)methylcarbamoyl]-6-azaspiro[2.5]octan-2-yl]methyl]furo[2,3-c]pyridine-2-carboxamide]"
9,0.118 µM,"COc1ccccc1CNC(=O)N1CCC2(CC1)CC2CNC(=O)c1cc2ccncc2o1 (stereo not drawn) [Example 164, N-[[6-((2-methoxyphenyl)methylcarbamoyl]-6-azaspiro[2.5]octan-2-yl]methyl]furo[2,3-c]pyridine-2-carboxamide]"
10,0.309 µM,"COc1cccc(CNC(=O)N2CCC3(CC2)CC3CNC(=O)c2cc3ccncc3o2)c1 (stereo not drawn) [Example 165, N-[[6-[(3-methoxyphenyl)methylcarbamoyl]-6-azaspiro[2.5]octan-2-yl]methyl]furo[2,3-c]pyridine-2-carboxamide]"
11,0.406 µM,"O=C(NCC1CC12CCN(C(=O)NCc1cccc(F)c1)CC2)c1cc2ccncc2o1 (stereo not drawn) [Example 166, N-[[6-[(3-fluorophenyl)methylcarbamoyl]-6-azaspiro[2.5]octan-2-yl]methyl]furo[2,3-c]pyridine-2-carboxamide]"
12,0.314 µM,"COc1ccc(CNC(=O)N2CCC3(CC2)CC3CNC(=O)c2cc3ccncc3o2)cc1 (stereo not drawn) [Example 167, N-[[6-[(4-methoxyphenyl)methylcarbamoyl]-6-azaspiro[2.5]octan-2-yl]methyl]furo[2,3-c]pyridine-2-carboxamide]"
13,0.113 µM,"O=C(NCC1CC12CCN(C(=O)NCc1ccc(Cl)c(Cl)c1)CC2)c1cc2ccncc2o1 (stereo not drawn) [Example 168, N-[[6-[(3,4-dichlorophenyl)methylcarbamoyl]-6-azaspiro[2.5]octan-2-yl]methyl]furo[2,3-c]pyridine-2-carboxamide]"
14,0.161 µM,"O=C(NCC1CC12CCN(C(=O)NCc1ccc(Cl)cc1)CC2)c1cc2ccncc2o1 (stereo not drawn) [Example 170, N-[[6-[(4-chlorophenyl)methylcarbamoyl]-6-azaspiro[2.5]octan-2-yl]methyl]furo[2,3-c]pyridine-2-carboxamide]"
15,0.0604 µM,"O=C(NCC1CC12CCN(C(=O)NCc1ccccc1Cl)CC2)c1cc2ccncc2o1 (stereo not drawn) [Example 171, N-[[6-[(2-chlorophenyl)methylcarbamoyl]-6-azaspiro[2.5]octan-2-yl]methyl]furo[2,3-c]pyridine-2-carboxamide]"
16,0.422 µM,"CCNC(=O)N1CCC2(CC1)CC2CNC(=O)c1cc2ccncc2o1 (stereo not drawn) [Example 172, N-[[6-(ethylcarbamoyl)-6-azaspiro[2.5]octan-2-yl)methyl]furo[2,3-c]pyridine-2-carboxamide]"
17,0.146 µM,"O=C(NCC1CC12CCN(C(=O)NCc1ccc(Cl)cc1Cl)CC2)c1cc2ccncc2o1 (stereo not drawn) [Example 173, N-[(6-[(2,4-dichlorophenyl)methylcarbamoyl]-6-azaspiro[2.5]octan-2-yl]methyl]furo[2,3-c]pyridine-2-carboxamide]"
18,0.238 µM,"CC1(O)CC(CC(=O)N2CCC3(CC2)CC3CNC(=O)c2cc3ccncc3o2)C1 (stereo not drawn) [Example 174, N-([6-[2-(3-hydroxy-3methylcyclobutyl)acetyl]-6-azaspiro[2.5]octan-1-yl]methyl)furo[2,3-c]pyridine-2-carboxamide]"
